Molecular target: MBP-Mdm2 (UniProt P0AEX9+Q00987)
Assay: isothermal titration calorimetry (ITC)
Assay type: binding, human
Details: read-out: KD of chalcone/MBP-Mdm2 complex under inventors' conditions; inferred; not determinable by ITC

With `O=C(O)COc1ccc(/C=C/C(=O)c2ccc(Cl)cc2)cc1` as the compound, how does the Kd read?
Its Kd is at least 220 µM.

Source: patent US7736909B2, “Methods and compositions comprising capture agents” (Board of Regents, the University of Texas System, priority 2003, dated 2010)
